{"source": "patent US7276339B2", "about": "(H. Lundbeck A/S, priority 1998, dated 2007)", "origin": "cited, not measured here", "system": "NPFF receptors", "settings": "10 μM; cited from earlier work"}
{"smiles": "CC(C)C[C@H](NC(=O)CNC(=O)[C@H](C)NC(=O)[C@H](CC(C)C)NC(=O)[C@H](CCCNC(=N)N)NC(=O)[C@H](Cc1c[nH]cn1)NC(=O)[C@@H](NC(=O)[C@@H](NC(=O)[C@@H]1CSSC[C@H](NC(=O)[C@H](C)N)C(=O)N[C@@H](CC(=O)O)C(=O)N[C@@H]([C@@H](C)O)C(=O)N[C@@H](C)C(=O)N[C@@H]([C@@H](C)O)C(=O)N1)C(C)C)[C@@H](C)O)C(=O)N[C@@H](CC(C)C)C(=O)N[C@@H](CO)C(=O)N[C@@H](CCCNC(=N)N)C(=O)N[C@@H](CO)C(=O)NCC(=O)NCC(=O)N[C@H](C(=O)N[C@H](C(=O)N[C@@H](CCCCN)C(=O)N[C@@H](CC(N)=O)C(=O)N[C@@H](CC(N)=O)C(=O)N[C@@H](Cc1ccccc1)C(=O)N[C@H](C(=O)N1CCC[C@H]1C(=O)N[C@H](C(=O)N[C@@H](CC(N)=O)C(=O)N[C@H](C(=O)NCC(=O)N[C@@H](CO)C(=O)N[C@@H](CCCCN)C(=O)N[C@@H](C)C(=O)N[C@@H](Cc1ccccc1)C(N)=O)C(C)C)[C@@H](C)O)C(C)C)C(C)C)C(C)C", "note": "[CGRP]", "values": [{"measurement": "inhibition of [125I](1DMe)Y8Fa binding", "value": "No inhibition"}]}
